The source of these data is ChEMBL document CHEMBL3414460, “Antiprotozoal activity and DNA binding of dicationic acridones” (J Med Chem, 2015).

The experiment has as its system Hyperoartia. Kind of experiment: Binding affinity to fish sperm DNA by scatchard plot analysis.

Several values for one entry are separate records, joined by “and”; a condition that tells them apart may be missing. Equal values may be shown once.

Compound `Cl.Cl.O=c1c2cc(NC3=NCCN3)ccc2[nH]c2ccc(NC3=NCCN3)cc12` displayed a K of 13.1 ×10⁴ /M.

With `Cn1c2ccc(NC3=NCCN3)cc2c(=O)c2cc(NC3=NCCN3)ccc21.O=C(O)C(F)(F)F.O=C(O)C(F)(F)F`, the K worked out at 25 ×10⁴ /M.

As for `O=C(O)C(F)(F)F.O=C(O)C(F)(F)F.O=C1c2ccc(NC3=NCCN3)cc2C(=O)c2ccc(NC3=NCCN3)cc21`, the K amounted to 9.6 ×10⁴ /M.

Regarding `O=c1c2ccc(NC3=NCCN3)cc2[nH]c2cc(NC3=NCCN3)ccc12`, the K was 26.5 ×10⁴ /M and 17.5 ×10⁴ /M.

In turn, `Cl.Cl.O=c1c2ccc(NC3=NCCN3)cc2[nH]c2ccc(NC3=NCCN3)cc12` showed a K of 31.4 ×10⁴ /M.

Turning to `Cn1c2ccc(NC3=NCCN3)cc2c(=O)c2ccc(NC3=NCCN3)cc21.O=C(O)C(F)(F)F.O=C(O)C(F)(F)F`, the K was determined as 11.9 ×10⁴ /M.
